From the NIST ThermoML archive (doi:10.1021/acs.jced.9b00350)
± gives the expanded uncertainty stated by the source.

Assays:
[1] = Crystal; DSC
[2] = Molar enthalpy of transition or fusion; conditions: Crystal; DSC

SMILES: NC(=O)c1ccccc1N [anthranilamide]
- Triple point temperature [1]: 383.65 ± 0.93 K
- Molar enthalpy of transition or fusion [2]: 5.23 ± 0.167 kcal/mol
